The values that follow come from ChEMBL document CHEMBL6182939, “Searching for Synthetic Opioid Rescue Agents. 2: Identification of an Ultra-Potent Synthetic Opioid Rescue Agent” (J Med Chem, 2025).

Data set [1] in a line: Metabolic stability in mouse liver microsomes assessed as half life. The format is ADME, Microsome. On the technique in general: Liver microsomes are a subcellular fraction often used to study metabolism.
Data set [2] is described as follows: Metabolic stability in human liver microsomes assessed as half life. The format is ADME, Microsome.

SMILES strings stand for the structures.

With `CO[C@]12CC[C@@]3(C[C@@H]1C(C)(C)O)[C@H]1Cc4ccc(O)c5c4[C@@]3(CCN1CC1CC1)[C@H]2O5`, the t1/2 was < 2.5 min in data set [1] and 4.8 min in data set [2].
